From ChEMBL document CHEMBL5512649, “Drug development and potential targets for Cushing's syndrome” (Eur J Med Chem, 2024)

Sequences of proteins named here, by UniProt entry; tags and fusion partners are left off. Residues count along the entry.
UniProt P19838, 1-433 limits assumed: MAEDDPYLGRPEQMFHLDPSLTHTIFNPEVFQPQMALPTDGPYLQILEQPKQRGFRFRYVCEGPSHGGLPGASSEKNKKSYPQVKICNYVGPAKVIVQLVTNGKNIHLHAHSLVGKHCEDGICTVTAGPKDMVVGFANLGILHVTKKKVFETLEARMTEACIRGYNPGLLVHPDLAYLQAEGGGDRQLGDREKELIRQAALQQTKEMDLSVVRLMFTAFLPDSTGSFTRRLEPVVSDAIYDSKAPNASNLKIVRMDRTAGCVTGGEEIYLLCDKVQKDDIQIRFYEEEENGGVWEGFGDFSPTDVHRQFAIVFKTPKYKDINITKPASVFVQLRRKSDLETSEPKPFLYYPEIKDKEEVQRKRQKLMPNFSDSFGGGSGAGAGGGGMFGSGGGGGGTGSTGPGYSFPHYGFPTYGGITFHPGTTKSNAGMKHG
UniProt Q00653, 1-454 limits assumed: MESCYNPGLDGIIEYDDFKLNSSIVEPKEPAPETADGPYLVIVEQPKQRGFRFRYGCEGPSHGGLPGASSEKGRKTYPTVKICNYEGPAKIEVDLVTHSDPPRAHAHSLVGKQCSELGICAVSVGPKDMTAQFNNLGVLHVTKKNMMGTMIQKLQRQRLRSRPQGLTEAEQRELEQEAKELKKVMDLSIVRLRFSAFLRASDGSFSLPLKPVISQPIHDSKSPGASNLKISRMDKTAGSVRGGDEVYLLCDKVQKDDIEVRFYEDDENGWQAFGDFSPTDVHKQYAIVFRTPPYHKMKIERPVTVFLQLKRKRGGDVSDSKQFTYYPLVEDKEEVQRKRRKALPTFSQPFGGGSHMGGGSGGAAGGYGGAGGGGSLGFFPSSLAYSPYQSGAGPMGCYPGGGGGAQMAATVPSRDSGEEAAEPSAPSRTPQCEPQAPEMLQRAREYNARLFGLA
UniProt Q04206, whole entry: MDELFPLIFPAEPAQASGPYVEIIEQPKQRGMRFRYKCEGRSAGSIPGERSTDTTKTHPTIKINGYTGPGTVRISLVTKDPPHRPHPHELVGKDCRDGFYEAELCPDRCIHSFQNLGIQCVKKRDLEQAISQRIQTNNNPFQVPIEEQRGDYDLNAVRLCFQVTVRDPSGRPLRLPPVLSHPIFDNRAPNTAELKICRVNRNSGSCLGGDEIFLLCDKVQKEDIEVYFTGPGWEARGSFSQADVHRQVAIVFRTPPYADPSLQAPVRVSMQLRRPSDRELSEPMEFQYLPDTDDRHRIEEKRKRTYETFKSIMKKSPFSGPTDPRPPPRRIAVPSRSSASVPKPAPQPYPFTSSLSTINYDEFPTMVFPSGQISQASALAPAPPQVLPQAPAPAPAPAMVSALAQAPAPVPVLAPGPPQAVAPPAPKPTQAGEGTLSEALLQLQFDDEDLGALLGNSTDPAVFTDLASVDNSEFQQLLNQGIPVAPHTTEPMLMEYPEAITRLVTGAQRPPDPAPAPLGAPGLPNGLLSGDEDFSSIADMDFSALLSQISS

Biological target: Nuclear factor NF-kappa-B complex (Homo sapiens, UniProt P19838+Q00653+Q04206)
Assay: Inhibition of NF-kappaB (unknown origin)
Assay type: protein-complex assay

- IC50: ≤ 1 µM
Compound: COc1cc(/C=C/C(=O)CC(=O)/C=C/c2ccc(O)c(OC)c2)ccc1O [CURCUMIN]
